Data: patent publication US4277465A, “Adjuvant for promoting absorption of therapeutically active substances through the digestive tract” (Kyoto Yakuhin Kogyo Kabushiki Kaisha, priority 1978, dated 1981)

Assay: Rectal insulin suppository with Compound 3, blood glucose concentration (glucoseoxidase method)
Conditions: control: insulin alone added to base
Method: The test was conducted by the glucoseoxidase method. […] The largest depression of blood glucose from the pre-medication level was expressed in % response.

Question: Which “absorption of insulin (in words)” value does the source give for insulin [reference compound] here?
Answer: no absorption of insulin
